Laboratory results: patent US20050112068A1

Test: Fentanyl destruction in sodium hypochlorite solution (HPLC of remaining drug)
[1] = time 1 hr, sodium hypochlorite solution
[2] = time 2 hrs, sodium hypochlorite solution
[3] = time 4 hrs, sodium hypochlorite solution
[4] = time 8 hrs, sodium hypochlorite solution

CCC(=O)N(c1ccccc1)C1CCN(CCc2ccccc2)CC1
Fentanyl (mg in 10 mL solution) (time 0 hrs, water/citric acid + 6-9 wt % sodium hypochlorite solution 1:1, shaker 150 rpm): 3.50 mg in 10 mL solution
% Degraded [1]: 33%
Fentanyl (mg in 10 mL solution) [1]: 2.34 mg in 10 mL solution
% Degraded [2]: 55%
Fentanyl (mg in 10 mL solution) [2]: 1.57 mg in 10 mL solution
% Degraded [3]: 90%
Fentanyl (mg in 10 mL solution) [3]: 0.34 mg in 10 mL solution
% Degraded [4]: 100%
Fentanyl (mg in 10 mL solution) [4]: 0.00 mg in 10 mL solution
fentanyl degraded (within 4 hours in the hypochlorite solution): over 90%

This is a selection: effects in other tests are not listed, and their absence says nothing.
